# AlphaSeq binding of Ab-14 heavy chain variants to a spike HR2 peptide

Data: MIT Lincoln Laboratory AlphaSeq set, Li et al. 2023, doi:10.1038/s41467-023-39022-2, as distributed in FLAb.

Target: peptide PDVDLGDISGINAS, taken from heptad repeat 2 (HR2) of SARS-CoV-2 spike.

The variants keep the light chain, the linker and the frameworks of Ab-14 (scFv order VH, a (GGGGS)3 linker, VL).
VH: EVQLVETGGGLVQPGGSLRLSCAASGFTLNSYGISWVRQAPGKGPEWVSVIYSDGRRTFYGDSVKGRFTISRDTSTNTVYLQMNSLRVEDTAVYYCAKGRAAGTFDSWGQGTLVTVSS
VL: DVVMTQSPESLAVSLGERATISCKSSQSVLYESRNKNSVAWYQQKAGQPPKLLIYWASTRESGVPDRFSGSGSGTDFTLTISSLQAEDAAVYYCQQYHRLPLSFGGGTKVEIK

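The parent was found by panning a naive human phage display library on the peptide. The variants were designed computationally from a first round of random CDR variants and then made and measured. Several design methods are mixed in this list. AlphaSeq pools MATa yeast showing the antibodies with MATalpha yeast showing the peptide. Pairs that bind mate more often; barcode pairs of the diploids are counted by sequencing. Scores were corrected for input abundance and mapped to Kd with protein pairs of known affinity run in the same pool. There are six technical replicates.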

The parent's heavy chain CDRs are GFTLNSYGIS, VIYSDGRRTFYGDSVK, GRAAGTFDS; each variant's own CDRs replace them letter for letter.
Scale: log10 of Kd in nM, estimated from mating counts; low values are strong binders.
A mean of the replicates is given; it leaves out those without a signal.
An entry "nd" has no value in the source: the pair was not observed among the diploids in any replicate. This suggests poor binding but is not conclusive.
Some sequences occur more than once in the pool; their replicates are pooled.
Background: pairings of all heavy chain designs with three empty control strains gave a value in 1% of cases (median 2.08, 5th percentile 0.84). Values in that range, when seen in few replicates, are hard to tell from nonspecific mating.
The authors' rule: three or more of the six replicates give a measured affinity, fewer mean a poor binder.
Of ten entries with the parent sequence, four were seen in most replicates (averages 0.34 to 2.37), three in one and three in none, so single entries are noisy.
The range of this assay differs from that of the first round, and the authors advise against merging the two.

For GFNLNSYGIS | VIYSDGRRTFYGDSVK | GQEAGTFDS, the assay gave 0.10 (11 of 12 replicates).
For GFDLDEYGIS | VIYADGRRTAYVDSVK | GEVAGTFDV, the assay gave -0.60 (6 of 6 replicates).
For EFDLNNYGIS | VIYADGLRTAYETSFK | GDNAGTFDS, the assay gave nd (0 of 6 replicates).
For GMNLDEYGIS | VIYADGLRYHYANTVK | GEMAGFFMD, the assay gave nd (0 of 6 replicates).
For GFVLNEYGIS | VIYSDGRRTFYSDSVK | GRAGGTFDS, the assay gave 1.93 (5 of 6 replicates).
For GFDLNEYGYS | VIYSDGRRTAYGDEVK | GRAAGTINS, the assay gave 1.19 (6 of 6 replicates).
For HFNLNSYGIS | VIYSDGRRTFYADSVK | GQAAGTFDS, the assay gave 1.37 (6 of 6 replicates).
For GFTLNSYGIS | VIYSDGRRTFYIDSVK | GHAAGTFDS, the assay gave 0.78 (6 of 6 replicates).
For GFNLNEFGIS | VIYADGHRQAYVSNVK | GHLGGHFSM, the assay gave nd (0 of 6 replicates).
For GDQLDEYGIS | VIYADGMRTMYADSFK | GNKSVNIGD, the assay gave nd (0 of 6 replicates).
For GFDLNEYGIS | VIYADGVRTAYADKVK | GNVAGTFDV, the assay gave -0.61 (6 of 6 replicates).
For GFTLNDYGIS | VIYSDGRRTFYGDSVK | GRAAGTFHS, the assay gave 1.83 (5 of 6 replicates).
For GFDLNEYGIS | VIYADGRRTAYIDSVK | GNVAGTFDM, the assay gave -0.83 (6 of 6 replicates).
For GFSLNSYGIS | VIYSDGRRTAYGDMVK | GRAAGTFDS, the assay gave 0.28 (6 of 6 replicates).
For GFTLESYGIS | VIYSDGKRTFYGDSVK | GRAAGTFDS, the assay gave 0.77 (6 of 6 replicates).
For GFDLNEYGIS | VIYADGMRTFYSDSVK | GEAAGTFDV, the assay gave -0.22 (6 of 6 replicates).
For GFTLNSYGIS | VIYSDGRRTFYGDSVK | GRPAGTFDS, the assay gave 2.95 (1 of 6 replicates).
For GFTLNDYGIS | VFYSDGLRTQYIDSVK | GRAAGTFDS, the assay gave 3.59 (1 of 6 replicates).
For DFTLSSYGIS | VIYSDGRRTFYGDSVK | GKAAGTFDS, the assay gave 1.09 (6 of 6 replicates).
For GFDLDEYGIS | VIYADGRRTFYADSVK | GNNAGTFDM, the assay gave -0.06 (6 of 6 replicates).
For GTTLNSYGIS | VIYADGRRTFYGDSVK | GRAAGTNKS, the assay gave nd (0 of 6 replicates).
For GFDLDEYGIS | VIYADGKRTAYADDVK | GGNAGTFDV, the assay gave 0.56 (5 of 6 replicates).
For GFHLNSYGIS | VIYSDGRRTFYSDSVK | GQTAGTFDS, the assay gave 0.49 (4 of 6 replicates).
For GFDLDNFGIS | VIYADGIRTQYQDSVK | GQNVFTFDV, the assay gave nd (0 of 6 replicates).
For GFDLDEYGIS | VIYADGRRTFYADSVK | GTLAGTFDT, the assay gave -0.74 (6 of 6 replicates).
For GFTLNSYGIS | VIYSDGVRTFYSDSVK | GKAGGTFDS, the assay gave 1.83 (5 of 6 replicates).
For GFELNSYGIS | VIYSDGRRTFYSDSVK | GKNAGTFDS, the assay gave 0.21 (6 of 6 replicates).
For YFSLNSYGIS | VIYSDGRRTAYGDSVK | GRNAGTFDS, the assay gave 0.62 (6 of 6 replicates).
For GFELNSYGIS | VIYSDGRRTFYQDSVK | GRVAGTFDS, the assay gave 1.30 (5 of 6 replicates).
For GFDLDEYGIS | VIYADGKRTAYTDSVK | GNVAGTFDQ, the assay gave -0.69 (6 of 6 replicates).
For GFDLNEYGIS | VIYADGVRTYYADDVK | GNVAGTFDV, the assay gave 0.13 (6 of 6 replicates).
For GFDLNEYGIS | VIYADGRRTFYSDSVK | GQNAGTFDS, the assay gave -0.03 (6 of 6 replicates).
For GFDLNEYGIS | VIYADGVRTAYSDSVK | GANAGTFDI, the assay gave 0.07 (6 of 6 replicates).
For GFDLNSYGIS | VIYSDGRRTFYADSVK | GQAAGTFDL, the assay gave 0.14 (6 of 6 replicates).
For GFDLNEYGIS | VIYADGMRTAYADSVK | GNVAGTFTV, the assay gave -0.58 (6 of 6 replicates).
For GFQLEEYGIS | VIYADGSRTAYQDSVK | GKYKFSLIV, the assay gave nd (0 of 6 replicates).
For GFWLNSYGIS | VIYSDGRRTFYQDSVK | GAAAGTFDS, the assay gave nd (0 of 6 replicates).
For GFNLNSYGIS | VIYSDGRRTFYGDRVK | GQAAGTFDT, the assay gave 0.94 (4 of 6 replicates).
For GFKLNSYGIH | CIYSDGRRTFYSDSVK | GRAAGTFDS, the assay gave nd (0 of 6 replicates).
For GFSLNSYGIS | VIYSDGRRTFYIDSVK | GEAAGTFDS, the assay gave 0.62 (6 of 6 replicates).
For GFDLNEYGIS | VIYADGRRTFYADSVK | GNEAGTFDS, the assay gave 0.36 (6 of 6 replicates).
For GFNLDEYGIS | VIYADGMRTAYADSVK | GENAGTFDL, the assay gave 0.03 (6 of 6 replicates).
For KFTLNSYGIS | VIYSDGRRTFYGDSVK | GKTAGTFDS, the assay gave 1.91 (2 of 6 replicates).
For GKDLEEYGIS | VIYADGVRTSYVDQVK | GESGGAYYT, the assay gave nd (0 of 6 replicates).
For GFDLNSYGIS | VIYSDGKRTFYGDSVK | GRQAGTFDT, the assay gave 0.22 (6 of 6 replicates).
For GFDLNEYGIS | VIYADGKRTFYADKVK | GNVAGTFDI, the assay gave -0.67 (6 of 6 replicates).
For GFTLNEYGIS | VIYSDGRRTFYGDSVK | GRQAVTFDI, the assay gave nd (0 of 6 replicates).

Extract of 5 entries:

| CDR-H1 | CDR-H2 | CDR-H3 | log10 Kd (nM), mean | detected |
|---|---|---|---|---|
| GFDLNEYGIS | VIYADGVRTAYSDSVK | GANAGTFDI | 0.07 | 6 of 6 |
| GFDLNEYGIS | VIYADGVRTAYADKVK | GNVAGTFDV | -0.61 | 6 of 6 |
| GFSLNSYGIS | VIYSDGRRTFYIDSVK | GEAAGTFDS | 0.62 | 6 of 6 |
| YFSLNSYGIS | VIYSDGRRTAYGDSVK | GRNAGTFDS | 0.62 | 6 of 6 |
| GFTLNSYGIS | VIYSDGRRTFYIDSVK | GHAAGTFDS | 0.78 | 6 of 6 |